The values that follow come from patent US20260168983A1, “YaxAB NANOPORE, NANOPORE SYSTEM COMPRISING SAME AND APPLICATIONS THEREOF” (KOREA RESEARCH INSTITUTE OF BIOSCIENCE AND BIOTECHNOLOGY, priority 2022, published 2026).

“And” between values parts separate entries of the source, which are not always exact repeats. Equal entries are not always repeated.

Assay [1] deals with Bcl-xL protein, Q07817.
Assay [2] concerns the target Bcl-xL protein, Q07817. This is another data set of the same source.
The target in assay [3] is Bcl-xL protein, Q07817. As to the kind of experiment: YaxAB nanopore; Bcl-xL with a mix of four competing peptides at 1:15.

As to GQVGRQLAIIGDDINR (modifications not checked) [Bak-BH3 peptide (wild-type), Q16611 72-87], the current noise I N of the complex in the assay with Bcl-xL protein, Q07817 [1] is 95.5 pA and 92.2 pA and 78.9 pA. Moreover, in the assay with Bcl-xL protein, Q07817 [2], the Open probability (%) of level L2 amounted to 58%. The molecule also registered a signal frequency of the Bcl-xL-peptide complex with Bcl-xL protein, Q07817 [3] of 51%.
